Results: ChEMBL document CHEMBL1148798, “High-efficacy 5-HT1A agonists for antidepressant treatment: a renewed opportunity” (J Med Chem, 2007)

Sequences of proteins named here, by UniProt entry; tags and fusion partners are left off.
UniProt P08908, whole entry: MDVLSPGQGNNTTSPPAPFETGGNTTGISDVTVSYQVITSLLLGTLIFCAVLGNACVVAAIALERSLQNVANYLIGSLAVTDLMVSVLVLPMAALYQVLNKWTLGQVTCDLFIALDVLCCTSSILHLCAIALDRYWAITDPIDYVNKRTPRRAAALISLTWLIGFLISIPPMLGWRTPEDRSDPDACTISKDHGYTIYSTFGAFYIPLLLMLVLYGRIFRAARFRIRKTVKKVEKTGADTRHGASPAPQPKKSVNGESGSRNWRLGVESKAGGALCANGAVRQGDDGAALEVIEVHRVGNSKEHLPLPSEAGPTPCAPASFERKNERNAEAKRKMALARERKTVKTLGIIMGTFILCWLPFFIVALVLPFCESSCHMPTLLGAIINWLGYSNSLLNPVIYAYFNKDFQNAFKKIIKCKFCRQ

Target: 5-hydroxytryptamine receptor 1A (Homo sapiens, UniProt P08908)
Assay: Agonist activity at human 5HT1A receptor expressed in C6 cells assessed as stimulation of [35S]GTP-gamma-S binding relative to 5-hydroxytryptamine
Type: functional, cell-based
Summary of the method: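 Membranes from C6-glial cells expressing h5-HT1A, diluted 20-fold in 20 mM HEPES with 30 µM GDP, 100 mM NaCl, 3 mM MgCl2, 0.2 mM ascorbic acid (16-38 µg protein). Compound preincubated 30 min at 25 °C, then 500 pM [35S]GTPγS added. Six concentrations tested. Nonspecific binding with 10 µM GTPγS.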

Cc1ccc(CNCC2(F)CCN(C(=O)c3ccc(F)c(Cl)c3)CC2)nc1 [BEFIRADOL]
Emax: 74.7%
